{"source": "patent US20120052025A1", "about": "(Colgate-Palmolive Company, priority 2009, published 2012)", "tested_on": "A. viscosus", "test": "Inhibition of growth of A. viscosus", "details": "dentifrice of increased pH compared with pH 7 paste"}
{"compound": "Cc1ccc([B-]2(c3ccc(C)c(Cl)c3)OC(=O)c3ncccc3[OH+]2)cc1Cl", "note": "[Compound 1]", "values": [{"measurement": "antibacterial effect, growth inhibition of A. viscosus", "result": "comparable to that of the pH 7 paste as well as commercial high quality toothpaste"}]}
